The text below walks through data of ChEMBL document CHEMBL5223103, “FLT3 inhibitors for acute myeloid leukemia: successes, defeats, and emerging paradigms” (RSC Med Chem, 2022).

Assay [1] has as its target Receptor-type tyrosine-protein kinase FLT3 (Homo sapiens, UniProt P36888, D835Y). Description: Inhibition of FLT3 D835Y mutant (unknown origin).
The target of assay [2] is T1, Receptor-type tyrosine-protein kinase FLT3 (Homo sapiens, UniProt P36888). Description: Inhibition of human FLT3.
Assay [3] has as its target T1, Receptor-type tyrosine-protein kinase FLT3. The assay can be described thus: Inhibition of FLT3 mutant (unknown origin).

Consider `C1=C/COCc2cc(ccc2OCCN2CCCC2)Nc2nccc(n2)-c2cccc(c2)COC/1` [PACRITINIB], for which the figures for the IC50 in assay [1], in assay [2] and in assay [3] were 18.3 nM, 6.4 nM and 12 nM, respectively.
